Target: α7 nAChRs (Homo sapiens, UniProt P36544)
Experiment: cell-based
Settings: for Emax: read-out: Agonist Effect Emax

Sequences of proteins named here, by UniProt entry; tags and fusion partners are left off. Residues count along the entry.
UniProt P36544, 23-502: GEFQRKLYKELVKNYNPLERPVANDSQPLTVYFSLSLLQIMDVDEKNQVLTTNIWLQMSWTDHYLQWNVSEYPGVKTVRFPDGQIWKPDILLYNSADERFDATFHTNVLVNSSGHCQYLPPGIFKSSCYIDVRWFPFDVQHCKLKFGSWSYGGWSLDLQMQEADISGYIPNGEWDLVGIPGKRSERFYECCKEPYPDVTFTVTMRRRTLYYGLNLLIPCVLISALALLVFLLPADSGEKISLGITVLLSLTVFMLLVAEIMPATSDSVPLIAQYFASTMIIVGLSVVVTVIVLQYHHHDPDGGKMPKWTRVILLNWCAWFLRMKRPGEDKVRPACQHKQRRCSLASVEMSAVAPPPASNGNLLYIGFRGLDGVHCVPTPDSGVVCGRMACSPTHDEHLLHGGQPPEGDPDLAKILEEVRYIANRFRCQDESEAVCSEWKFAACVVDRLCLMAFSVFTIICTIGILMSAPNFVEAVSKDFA

Structure (SMILES)	Agonist Effect Hillslope	Antagonist Effect Hillslope	Emax
CN1CCCC1c1cccnc1 (racemic) [Synthetic RS racemic nicotine, RS-Nicotine]	−1.97	3.38	108%
CN1CCC[C@@H]1c1cccnc1 [Synthetic R nicotine, R nicotine]			110%
CN1CCC[C@H]1c1cccnc1 [Synthetic S nicotine, S nicotine]	−3.36	5.83	102%

From patent US10610526B2 (priority 2015, dated 2020)
